Results: patent US20060205037A1 (published 2006)

T1: rat GLP-1 receptor (CHO cells transfected with the rat GLP-1 receptor) (rat, UniProt P32301 22-463)
T1 sequence (looked up): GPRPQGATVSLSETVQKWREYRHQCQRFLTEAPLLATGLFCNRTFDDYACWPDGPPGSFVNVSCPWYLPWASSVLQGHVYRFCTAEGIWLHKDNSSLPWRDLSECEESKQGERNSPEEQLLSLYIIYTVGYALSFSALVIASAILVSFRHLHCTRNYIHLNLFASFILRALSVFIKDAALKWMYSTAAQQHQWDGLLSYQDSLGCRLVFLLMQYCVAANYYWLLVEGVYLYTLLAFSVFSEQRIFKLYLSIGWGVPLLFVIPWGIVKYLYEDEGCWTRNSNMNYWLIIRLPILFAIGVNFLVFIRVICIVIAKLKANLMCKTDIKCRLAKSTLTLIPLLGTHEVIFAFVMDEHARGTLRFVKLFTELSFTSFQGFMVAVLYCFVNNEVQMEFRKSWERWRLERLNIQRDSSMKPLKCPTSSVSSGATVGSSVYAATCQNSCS

B1: ΔL GLP-1(7-36) (SGGG)3 linker mTf (other)
chain: HAEGTFTSDVSSYLEGQAAKEFIAWLVKGRSGGGSGGGSGGGVPDKTVRWCAVSEHEATKCQSFRDHMKSVIPSDGPSVACVKKASYLDCIRAIAANEADAVTLDAGLVYDAYLAPNNLKPVVAEFYGSKEDPQTFYYAVAVVKKDSGFQMNQLRGKKSCHTGLGRSAGWNIPIGLLYCDLPEPRKPLEKAVANFFSGSCAPCADGTDFPQLCQLCPGCGCSTLNQYFGYSGAFKCLKDGAGDVAFVKHSTIFENLANKADRDQYELLCLDNTRKPVDEYKDCHLAQVPSHTVVARSMGGKEDLIWELLNQAQEHFGKDKSKEFQLFSSPHGKDLLFKDSAHGFLKVPPRMDAKMYLGYEYVTAIRNLREGTCPEAPTDECKPVKWCALSHHERLKCDEWSVNSVGKIECVSAETTEDCIAKIMNGEADAMSLDGGFVYIAGKCGLVPVLAENYNKADNCEDTPEAGYFAVAVVKKSASDLTWDNLKGKKSCHTAVGRTAGWNIPMGLLYNKINHCRFDEFFSEGCAPGSKKDSSLCKLCMGSGLNLCEPNNKEGYYGYTGAFRCLVEKGDVAFVKHQTVPQNTGGKNPDPWAKNLNEKDYELLCLDGTRKPVEEYANCHLARAPNHAVVTRKDKEACVHKILRQQQHLFGSNVADCSGNFCLFRSETKDLLFRDDTVCLAKLHDRNTYEKYLGEEYVKAVGNLRKCSTSSLLEACTFRRP
B2: nL GLP-1 (7-37; A8G, K34A) (PEAPTD)2 mTf (other)
chain: HGEGTFTSDVSSYLEGQAAKEFIAWLVAGRGPEAPTDPEAPTDVPDKTVRWCAVSEHEATKCQSFRDHMKSVIPSDGPSVACVKKASYLDCIRAIAANEADAVTLDAGLVYDAYLAPNNLKPVVAEFYGSKEDPQTFYYAVAVVKKDSGFQMNQLRGKKSCHTGLGRSAGWNIPIGLLYCDLPEPRKPLEKAVANFFSGSCAPCADGTDFPQLCQLCPGCGCSTLNQYFGYSGAFKCLKDGAGDVAFVKHSTIFENLANKADRDQYELLCLDNTRKPVDEYKDCHLAQVPSHTVVARSMGGKEDLIWELLNQAQEHFGKDKSKEFQLFSSPHGKDLLFKDSAHGFLKVPPRMDAKMYLGYEYVTAIRNLREGTCPEAPTDECKPVKWCALSHHERLKCDEWSVNSVGKIECVSAETTEDCIAKIMNGEADAMSLDGGFVYIAGKCGLVPVLAENYNKADNCEDTPEAGYFAVAVVKKSASDLTWDNLKGKKSCHTAVGRTAGWNIPMGLLYNKINHCRFDEFFSEGCAPGSKKDSSLCKLCMGSGLNLCEPNNKEGYYGYTGAFRCLVEKGDVAFVKHQTVPQNTGGKNPDPWAKNLNEKDYELLCLDGTRKPVEEYANCHLARAPNHAVVTRKDKEACVHKILRQQQHLFGSNVADCSGNFCLFRSETKDLLFRDDTVCLAKLHDRNTYEKYLGEEYVKAVGNLRKCSTSSLLEACTFRRP
B3: ΔL GLP-1(7-36) GLP-2 linker-mTf (other)
chain: HAEGTFTSDVSSYLEGQAAKEFIAWLVKGRHADGSFSDEMNTILDNLAARDFINWLIQTKITDRVPDKTVRWCAVSEHEATKCQSFRDHMKSVIPSDGPSVACVKKASYLDCIRAIAANEADAVTLDAGLVYDAYLAPNNLKPVVAEFYGSKEDPQTFYYAVAVVKKDSGFQMNQLRGKKSCHTGLGRSAGWNIPIGLLYCDLPEPRKPLEKAVANFFSGSCAPCADGTDFPQLCQLCPGCGCSTLNQYFGYSGAFKCLKDGAGDVAFVKHSTIFENLANKADRDQYELLCLDNTRKPVDEYKDCHLAQVPSHTVVARSMGGKEDLIWELLNQAQEHFGKDKSKEFQLFSSPHGKDLLFKDSAHGFLKVPPRMDAKMYLGYEYVTAIRNLREGTCPEAPTDECKPVKWCALSHHERLKCDEWSVNSVGKIECVSAETTEDCIAKIMNGEADAMSLDGGFVYIAGKCGLVPVLAENYNKADNCEDTPEAGYFAVAVVKKSASDLTWDNLKGKKSCHTAVGRTAGWNIPMGLLYNKINHCRFDEFFSEGCAPGSKKDSSLCKLCMGSGLNLCEPNNKEGYYGYTGAFRCLVEKGDVAFVKHQTVPQNTGGKNPDPWAKNLNEKDYELLCLDGTRKPVEEYANCHLARAPNHAVVTRKDKEACVHKILRQQQHLFGSNVADCSGNFCLFRSETKDLLFRDDTVCLAKLHDRNTYEKYLGEEYVKAVGNLRKCSTSSLLEACTFRRP

How the values were obtained:
[1] = target: T1, rat GLP-1 receptor (CHO cells …); assay: cell-based or functional assay
[2] = target: GLP-1 receptor (CHO/GLP-1R cells, stably transfected CHO cells); assay: cell-based or functional assay

Row | Binder | cAMP assay, Activity (nM) (EC50) [1] | intracellular cAMP in CHO/GLP-1R cells, EC50 [2] [nM]
1 | B1 | 2.27 | –
2 | B2 | – | 2.28
3 | B3 | 5.9 | –
